Earlier results as cited in patent publication US20190336490A1, “COMPOSITIONS AND METHODS FOR INCREASING REMYELINATION” (Frequency Therapeutics, Inc., priority 2018, published 2019).

Chains of the proteins cited; added tags and fusions are not shown. Lines headed by an entry give the natural chain unless they say otherwise; changes in a name come on top.
UniProt P11229: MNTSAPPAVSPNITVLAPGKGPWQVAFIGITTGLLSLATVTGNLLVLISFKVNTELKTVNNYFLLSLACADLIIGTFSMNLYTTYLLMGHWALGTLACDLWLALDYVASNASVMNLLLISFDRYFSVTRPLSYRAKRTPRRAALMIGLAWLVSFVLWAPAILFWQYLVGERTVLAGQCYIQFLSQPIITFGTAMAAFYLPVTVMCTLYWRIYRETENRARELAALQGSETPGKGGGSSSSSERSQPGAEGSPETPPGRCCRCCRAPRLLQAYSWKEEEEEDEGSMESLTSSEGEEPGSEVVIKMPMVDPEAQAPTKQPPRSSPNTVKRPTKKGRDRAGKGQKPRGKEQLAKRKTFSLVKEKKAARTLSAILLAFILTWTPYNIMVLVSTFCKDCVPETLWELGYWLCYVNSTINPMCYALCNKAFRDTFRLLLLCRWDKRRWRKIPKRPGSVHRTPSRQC

Biological target: muscarinic M1 receptor (Homo sapiens, UniProt P11229)
Details: cited from earlier work

In the case of `C[N+]1(C)CCN(CC(O)(c2ccccc2)C2CCCCC2)CC1` (stereo not shown) [Hexocyclium], the “In vitro M1 (Conc)” value is listed as 1.2 nM.
